From patent publication US20220326229A1, “ASSAY FOR REAL-TIME SIMULTANEOUS RECRUITMENT OF ARRESTIN ISOFORMS TO G PROTEIN-COUPLED RECEPTORS” (Purdue Research Foundation, priority 2021, published 2022) come the findings set out here.

Chains of the proteins cited; added tags and fusions are not shown. Lines headed by an entry give the natural chain unless they say otherwise; changes in a name come on top. A line that says so, or that is headed by a name, gives the form on record, which may keep a tag or linker.
UniProt P32300, with tags, fused parts or gaps: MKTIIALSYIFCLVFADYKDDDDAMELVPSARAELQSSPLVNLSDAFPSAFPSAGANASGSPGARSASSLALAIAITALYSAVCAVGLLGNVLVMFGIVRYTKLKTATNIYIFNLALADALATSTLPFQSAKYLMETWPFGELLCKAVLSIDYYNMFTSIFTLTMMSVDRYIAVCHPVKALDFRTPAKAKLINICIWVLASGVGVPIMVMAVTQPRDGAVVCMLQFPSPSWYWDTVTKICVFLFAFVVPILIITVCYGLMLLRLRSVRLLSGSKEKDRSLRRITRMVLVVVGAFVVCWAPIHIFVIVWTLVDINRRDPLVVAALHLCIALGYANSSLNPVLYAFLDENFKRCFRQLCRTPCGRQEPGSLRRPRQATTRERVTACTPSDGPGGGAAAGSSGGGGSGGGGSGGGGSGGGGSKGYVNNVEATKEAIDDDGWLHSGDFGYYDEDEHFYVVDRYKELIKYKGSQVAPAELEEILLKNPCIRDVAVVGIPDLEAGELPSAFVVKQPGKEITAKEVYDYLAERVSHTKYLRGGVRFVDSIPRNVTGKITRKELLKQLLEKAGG

The experiment addresses T1, δ opioid receptor (DOR) (Mus musculus, UniProt P32300).
T1 construct: influenza signal peptide (N); linker […]; expressed in transfected cells; host or cells: HEK293
Kind of experiment: ClickArr assay: simultaneous recruitment of Barr1 (508 nm) and Barr2 (620 nm) to DOR in triply transfected HEK293 cells. The class given is cell-based.

For YGGFL [leu-enkephalin], the “Kinetics of Barr1 vs Barr2 recruitment (normalized β-arrestin signal over time)” value is listed as “Recruitment of Barr1 is much slower than Barr2”.
